Experimental data: patent publication EP0810245A1, “Catalyst for low temperature cure of blocked isocyanates” (ELF ATOCHEM NORTH AMERICA, INC., priority 1996, dated 1997)
Where two headings read alike, the source gives them in different places.

[1] = 0.16%Sn, Blocked HDI + Acrylic Polyol + MIBK + MAK
[2] = 0.20 %Sn, Blocked HDI + Acrylic polyol + MIBK + MAK

With “Dibutyl Di Octylmaleate Stannox n=6 [Example 3]” the “COMMENTS (solubility of catalyst)” value [1] was “partly soluble after heat”.
With “Dibutyl Diacetoxy Stannox n=3 [Example 1]” the “COMMENTS (solubility of catalyst)” value [1] was “soluble on heating” and the solubility [1] was “partly soluble on heating”.
For “Dibutyl Diacetoxy Stannox n=6 [Example 2]”, the “COMMENTS (solubility of catalyst)” value [1] was “partly soluble after heat” and the solubility [1] was “insoluble”.
For “Dibutyl Diformyloxy Stannox (n=3) [Example 4]”, the solubility [2] was “soluble”.
For “Dibutyl Diformyloxy Stannox (n=6) [Example 5]”, the solubility [2] was “partly soluble on heating”.
For “Dibutyl Diformyloxy Stannox (n=14) [Example 6]”, the solubility [2] was “sparingly soluble on htg to 70C”.
